Assay results reported in patent US20220241229A1, “Methods and Compositions for Altering Senescence Associated Secretory Phenotype” (BUCK INSTITUTE FOR RESEARCH ON AGING, priority 2019, published 2022).

What was measured:
C57BL6/J mice [1] = settings: Cohort-2; median life (28 months old)
Procedure: Metabolism was measured applying indirect calorimetry. Promethion metabolic cage system-Sable Systems International was used. The system is equipped with GA-3 small mammal gas analyzers for measurements of O2 (consumption) and CO2 (production). Energy expenditure, food intake, water consumption, body weight, physical activity and volunteer exercise were simultaneously recorded over 4 consecutive days (96 hours). Mice were housed individually in metabolic cages and accustomed to their environment a day before the start of recording. Data were analyzed using Sable System Expedata-P Data Analysis Software. Subsequently, CalR software, a free web tool was used for analysis of experiments using indirect calorimetry, to analyze the raw data, generate some plots and run statistical analysis.

C57BL6/J mice [2] = settings: for Age (days) at 50% mortality / Age (days) at 90% mortality: 2% w/w AKG diet from 18 months of age; for Survival (survival curves vs. control): pooled female and male, two independent cohorts of aged mice, 2% CaAKG (w/w) diet from 18 months, P=0.032, P=0.022
Excerpt: The principle endpoint of health span and lifespan study was natural death or mice found dead at daily inspection or age at euthanasia (for mice deemed unlikely to survive for next 48 hr and are in enormous discomfort). The criteria for euthanasia were based on an independent assessment by a veterinarian, according to AAALAC guidelines and only where the condition of the animal was considered. Severe lethargy, rapid weight loss (over two weeks>20%), severe distended abdomen and body condition score with signs of pain (grimace), inability to move despite the stimuli, severe ulcer or bleeding tumor, sever temperature loss with abnormal breathing rate. Animal found dead or euthanized was necropsied for pathology score. No invasive measurements were performed on this population, n=180 animals (two cohorts of 90 animals). A sacrificed group were purchased at 14 months of age, baselined and grouped the following week. […] Animals were sacrificed and tissues were collected after 3 months of treatment. Food intake and body weight were measured on a biweekly and bimonthly basis for the duration of the study.
(§1) Python Software was used to extract all the health span data and create files compatible with R software for analysis. Data were analyzed using R, GraphPad Prism 7 and OASIS 2 software. Log-rank (Mantel-Cox) tests were used to analyze Kaplan-Meier curves, and a fisher's exact test was performed for maximum lifespan analysis (at 90% survival). […] Two-way analysis of variance (ANOVA) with Bonferroni post hoc correction was used for analysis between morbidity curves. The area under curve (AUC) of […] graphs were measured baselining at 18 months of age. The changes in AUC were used to calculate the percent compression of morbidity.

senescent markers = settings: tissues of old mice (sacrificed group); trends toward reduced levels in some tissues
C57BL6/J mice [3] = settings: for Age-dependent hair graying (fur color index): female mice, after 9 months of treatment; for Reduction of area under the frailty curve (proportion of life frail): frailty scores vs. percentage of lifespan, P<0.01
Excerpt: For the subjective properties of the assessments, all measurements were completely blinded. These assessments indicate age-associated deterioration of health and include evaluation of the animal musculoskeletal system, the vestibulocochlear/auditory systems, the ocular and nasal systems, the digestive system, the urogenital system, the respiratory system, signs of discomfort, body weight and body surface temperature. 0 is assigned if no sign of frailty is observed and the animal is healthy for that phenotype. A moderate phenotype and a severe phenotype is scored 0.5 and 1 respectively. Loss of temperature and weight were scored using standard deviation for the study (Table 2). All the phenotypes were scored as described before by Whitehead, J. C., et al., except for temperature and weight. Temperature and weights scoring: Briefly, for weight and temperature, the new scaling scores were used; Average and standard deviations (STDEV) were calculated sex specifically using our own baseline data sets (data collected before the start of the treatment mice at 18th month age). A decrease in temperature or weight (FIG. 3B, and FIG. 3D) within one STDEV is scored as a (0), a decrease bigger than one STDEV but smaller than 2 STDEV will be scored as a (0.5) and any decrease more than 2 STDEV is scored as a (1).
as §1
In order to assess healthspan, measurements were applied that are based on a clinically relevant frailty index. The frailty index (FI) consists of 31 phenotypes that are indicators of age-associated health deterioration, with each phenotype scored on a 0, 0.5 or 1 scale, based on its severity. Body weight and surface temperature were collected and converted to the same scoring scales (Table 2). All scorings were conducted in a blinded manner.
The 31-metrics share many characteristics of the human frailty indices and has been reported to progress similarly with aging in mice and humans. Measurements were repeated approximately every eight weeks, providing us with eight and seven sets of data respectively for male and female groups. To establish a baseline clinical assessment, a dataset was collected right before the start of the treatment at 18th months (FIG. 4A-FIG. 4D).
Since the age for onset of age-related phenotypes can be quite heterogeneous in mammals, frailty datasets were plotted not only as a function of chronological time, but also in proportion to the lifespan of each mouse by binning scores within ten percentile (e.g. scores collected between 60% and 70% of the animals' lifespans were binned and plotted at 65%), (FIG. 9A-FIG. 9B). This further aligns assessments with respect to the biologic age of the animal.

heart and motor function = settings: aged mice, male and female
[4] = female, Cohort-1, AKG vs. control
[5] = female, Cohort-2, AKG vs. control
[6] = male, Cohort-1, AKG vs. control
[7] = male, Cohort-2, AKG vs. control

O=C(O)CCC(=O)C(=O)O [AKG, 2-oxopentanedioic acid]
Locomotion activity in metabolic cages (C57BL6/J mice [1]): improves locomotion | Age (days) at 50% mortality (C57BL6/J mice [2]; female, Cohort-1): 932 days | Age (days) at 90% mortality (C57BL6/J mice [2]; female, Cohort-1): 1109 days | Percentage survival increase from birth, age at 50% mortality (C57BL6/J mice [2]; [4]): 6.3% | Percentage survival increase from birth, age at 90% mortality (C57BL6/J mice [2]; [4]): 9% | Percentage survival increase from birth, age at 100% (C57BL6/J mice [2]; [4]): 10% | Percentage survival increase from inception of study, age at 50% mortality (C57BL6/J mice [2]; [4]): 16.6% | Percentage survival increase from inception of study, age at 90% mortality (C57BL6/J mice [2]; [4]): 19.7% | Percentage survival increase from inception of study, age at 100% (C57BL6/J mice [2]; [4]): 21% | Age (days) at 50% mortality (C57BL6/J mice [2]; female, Cohort-2): 902 days | Percentage survival increase from birth, age at 50% mortality (C57BL6/J mice [2]; [5]): 3.7% | Percentage survival increase from inception of study, age at 50% mortality (C57BL6/J mice [2]; [5]): 9.6% | Percentage survival increase from inception of study (AKG vs. Cntrl), age at 50% mortality (C57BL6/J mice [2]; male & female, Cohort-1): 9.7% | Percentage survival increase from inception of study (AKG vs. Cntrl), age at 90% mortality (C57BL6/J mice [2]; male & female, Cohort-1): 20.2% | Percentage survival increase from inception of study (AKG vs. Cntrl), age at 100% (C57BL6/J mice [2]; male & female, Cohort-1): 14.2% | Percentage survival increase in survival from birth (AKG vs. Cntrl), age at 50% mortality (C57BL6/J mice [2]; male & female, Cohort-1): 4.1% | Percentage survival increase in survival from birth (AKG vs. Cntrl), age at 90% mortality (C57BL6/J mice [2]; male & female, Cohort-1): 9.5% | Percentage survival increase in survival from birth (AKG vs. Cntrl), age at 100% (C57BL6/J mice [2]; male & female, Cohort-1): 7.2% | Age (days) at 50% mortality (C57BL6/J mice [2]; male & female, Cohort-1): 977 days | Age (days) at 90% mortality (C57BL6/J mice [2]; male & female, Cohort-1): 1116 days | Percentage survival increase in survival from birth (AKG vs. Cntrl), age at 50% mortality (C57BL6/J mice [2]; male & female, Cohort-2): 3.7% | Age (days) at 50% mortality (C57BL6/J mice [2]; male & female, Cohort-2): 870 days | Age (days) at 50% mortality (C57BL6/J mice [2]; male, Cohort-1): 995 days | Age (days) at 90% mortality (C57BL6/J mice [2]; male, Cohort-1): 1155 days | Percentage survival inception of study, age at 50% mortality (C57BL6/J mice [2]; [6]): 9.6% | Percentage survival inception of study, age at 90% mortality (C57BL6/J mice [2]; [6]): 16.4% | Percentage survival inception of study, age at 100% (C57BL6/J mice [2]; [6]): 11.2% | Percentage survival increase in survival from birth, age at 50% mortality (C57BL6/J mice [2]; [6]): 4.2% | Percentage survival increase in survival from birth, age at 90% mortality (C57BL6/J mice [2]; [6]): 8% | Percentage survival increase in survival from birth, age at 100% (C57BL6/J mice [2]; [6]): 6% | Age (days) at 50% mortality (C57BL6/J mice [2]; male, Cohort-2): 870 days | Percentage survival inception of study, age at 50% mortality (C57BL6/J mice [2]; [7]): 10.4% | Percentage survival increase in survival from birth, age at 50% mortality (C57BL6/J mice [2]; [7]): 3.7% | Survival (survival curves vs. control) (C57BL6/J mice [2]): extends lifespan and decreases mortality | Senescent markers in tissues (qRT-PCR) (senescent markers): no significant changes | Age-dependent hair graying (fur color index) (C57BL6/J mice [3]; first cohort): reverses the hair discoloration | Age-dependent hair graying (fur color index) (C57BL6/J mice [3]; second cohort): prevent the hair discoloration | Reduction of area under the frailty curve (proportion of life frail) (C57BL6/J mice [3]; females): 52% | Reduction of area under the frailty curve (proportion of life frail) (C57BL6/J mice [3]; males): 40%

O=C([O-])CCC(=O)C(=O)[O-].[Ca+2] [CaAKG, Calcium alpha-ketoglutarate]
Locomotion activity in metabolic cages (C57BL6/J mice [1]): increased locomotion activity | Improved survival from inception of CaAKG feeding (C57BL6/J mice [2]; female mice, first cohort, P=0.02): 19.4% | Percentage survival increase from inception of study, age at 50% mortality (C57BL6/J mice [2]; [5]): 9.6% | Percentage survival increase from inception of study (AKG vs. Cntrl), age at 50% mortality (C57BL6/J mice [2]; male & female, Cohort-1): 9.7% | Percentage survival increase from inception of study (AKG vs. Cntrl), age at 90% mortality (C57BL6/J mice [2]; male & female, Cohort-1): 20% | Percentage survival inception of study, age at 50% mortality (C57BL6/J mice [2]; [7]): 10.4% | Improved survival (extended) (C57BL6/J mice [2]; males, first cohort, not significant (P=0.18 and P=0.15)): 9.4% | Survival (survival curves vs. control) (C57BL6/J mice [2]): increases survival | Age-dependent hair graying (fur color index) (C57BL6/J mice [3]; first cohort): reverse age-dependent hair graying | Age-dependent hair graying (fur color index) (C57BL6/J mice [3]; second cohort): only prevented the hair graying and no reversal effect was detected | Heart and motor function (treadmill exhaustion test, heart echocardiography) (heart and motor function): No significant adverse changes

Where two headings read alike, the source gives them in different places.
